Laboratory results reported in PMC9696605 (Viruses, 2022).

Key:
[1] = test system: Nedd4L mRNA in T cells from MS patients; assay: Nedd4L mRNA expression, real-time PCR; type: cell-based, human; conditions: T cells from 12 MS patients, normalized to GAPDH, Figure 2c; pU24-6A p: 0.0025, pc: 0.018; pU24-6B p: 0.004, pc: 0.028; Nedd4L RNAi p: 0.0015, pc: 0.011
[2] = test system: phosphorylated Smad2 [pSpS465/467] in T cells from MS patients; assay: Phosphorylated Smad2 ELISA; type: cell-based, human; conditions: T cells from 12 MS patients, Figure 2e; Nedd4L RNAi p: 0.0026, pc: 0.018; pU24-6A p: 0.0015, pc: 0.011; pU24-6B p: 0.0039, pc: 0.027
[3] = test system: total Smad2 in T cells from MS patients; assay: Total Smad2 ELISA; type: cell-based, human; conditions: T cells from 12 MS patients, Figure 2d; Nedd4L RNAi p: 0.004, pc: 0.028; pU24-6A p: 0.0027, pc: 0.019; pU24-6B p: 0.0034, pc: 0.024
[4] = test system: NK cells from MS patients co-cultured with 721.221-ICP47-C1 cells; assay: Granzyme B ELISPOT/Fluorospot assay; type: cell-based, human; conditions: 721.221-ICP47-C1 cells incubated with pU24-6A; 0.2, 0.5, 1, or 4 h at 37 °C, Figure 5f
[5] = test system: HLA-C1 in 721.221-ICP47-C1 cells; assay: HLA-C1 surface expression (stabilization) in 721.221-ICP47-C1 cells; type: cell-based, human; conditions: 721.221-ICP47-C1 cells incubated overnight at 26 °C with peptide, gMFI, Figure 5a; pU24-6A p: 0.0012, pc: 0.004
T cells from MS patients = assay: EdU assay, T-cell proliferation; type: cell-based, human; conditions: T cells from 12 MS patients, peptide transfection, Figure 2b, pU24-6A p: 0.003, pc: 0.021, pU24-6B p: 0.007, pc: 0.049 (One way ANOVA, Bonferroni)
actin = conditions: cited from earlier work

Row | Compound | Nedd4L mRNA expression [1] | phosphorylated Smad2 expression [2] | total Smad2 expression [3] | GrB spots, KIR2DL2 negative [4] | degranulation cell frequency, KIR2DL2 positive [4] | HLA-C1 expression / stabilization [5] | T-cell proliferation (T cells from MS patients) | Effect of MBP phosphorylation on Kd of MBP-actin complex (actin)
1 | CSCC[C@H](N)C(=O)N[C@@H](CC(=O)O)C(=O)N1CCC[C@H]1C(=O)N1CCC[C@H]1C(=O)N[C@@H](CCCNC(=N)N)C(=O)N[C@H](C(=O)N1CCC[C@H]1C(=O)N1CCC[C@H]1C(=O)N1CCC[C@H]1C(=O)N[C@@H](CO)C(=O)N[C@@H](Cc1ccc(O)cc1)C(=O)N[C@@H](CO)C(=O)N[C@@H](CCC(=O)O)C(=O)N[C@H](C(=O)N[C@@H](CC(C)C)C(=O)O)C(C)C)[C@@H](C)OP(=O)(O)O [pU24-6A] | significantly decreased Nedd4L mRNA expression | increased expression of total and phosphorylated Smad2 protein | increased expression of total and phosphorylated Smad2 protein | number of GrB spots increased linearly | lower degranulation cell frequency, which was independent of incubation time | increased expression of HLA-C1 |  | 
2 | MBP: myelin basic protein, a key component of the myelin sheath (IVTPRTPPPSQGKGR) | did not modify Nedd4L mRNA expression |  |  |  |  | lower binding affinity for HLA-C1 | induced T-cell proliferation | without however affecting the dissociation constant of the MBP-actin complex
